Data reported in US11618753B2 (priority 2018, dated 2023).

Chains of the proteins cited; added tags and fusions are not shown. Lines headed by an entry give the natural chain unless they say otherwise; changes in a name come on top. Residues count along the entry.
UniProt O00329: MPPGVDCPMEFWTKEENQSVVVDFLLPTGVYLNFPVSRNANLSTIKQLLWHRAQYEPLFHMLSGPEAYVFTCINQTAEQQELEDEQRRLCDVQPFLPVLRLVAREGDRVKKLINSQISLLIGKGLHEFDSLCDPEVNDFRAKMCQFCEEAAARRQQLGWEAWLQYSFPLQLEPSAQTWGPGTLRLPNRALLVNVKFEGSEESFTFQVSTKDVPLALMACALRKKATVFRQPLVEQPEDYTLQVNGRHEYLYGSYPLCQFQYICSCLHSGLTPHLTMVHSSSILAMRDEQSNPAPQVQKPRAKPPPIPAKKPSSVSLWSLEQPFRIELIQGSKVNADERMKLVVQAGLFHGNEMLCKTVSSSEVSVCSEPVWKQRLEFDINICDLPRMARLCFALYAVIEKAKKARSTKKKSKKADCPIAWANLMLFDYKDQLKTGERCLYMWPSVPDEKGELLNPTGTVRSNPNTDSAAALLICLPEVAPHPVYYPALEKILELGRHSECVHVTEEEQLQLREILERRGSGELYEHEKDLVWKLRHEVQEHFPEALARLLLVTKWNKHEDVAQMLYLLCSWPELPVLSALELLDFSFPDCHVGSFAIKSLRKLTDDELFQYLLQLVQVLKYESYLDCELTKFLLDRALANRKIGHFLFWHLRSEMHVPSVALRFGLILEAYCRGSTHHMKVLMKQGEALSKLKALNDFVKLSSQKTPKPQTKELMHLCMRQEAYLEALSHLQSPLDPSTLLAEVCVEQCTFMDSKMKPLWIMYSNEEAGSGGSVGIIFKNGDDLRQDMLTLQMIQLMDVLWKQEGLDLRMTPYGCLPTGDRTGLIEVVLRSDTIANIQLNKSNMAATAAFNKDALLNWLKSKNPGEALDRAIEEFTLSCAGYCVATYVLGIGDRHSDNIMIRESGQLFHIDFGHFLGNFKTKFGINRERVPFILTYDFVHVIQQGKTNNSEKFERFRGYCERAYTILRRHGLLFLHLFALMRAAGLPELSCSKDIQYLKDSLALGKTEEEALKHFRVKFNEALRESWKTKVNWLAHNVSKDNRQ
UniProt Q13546, 1-324: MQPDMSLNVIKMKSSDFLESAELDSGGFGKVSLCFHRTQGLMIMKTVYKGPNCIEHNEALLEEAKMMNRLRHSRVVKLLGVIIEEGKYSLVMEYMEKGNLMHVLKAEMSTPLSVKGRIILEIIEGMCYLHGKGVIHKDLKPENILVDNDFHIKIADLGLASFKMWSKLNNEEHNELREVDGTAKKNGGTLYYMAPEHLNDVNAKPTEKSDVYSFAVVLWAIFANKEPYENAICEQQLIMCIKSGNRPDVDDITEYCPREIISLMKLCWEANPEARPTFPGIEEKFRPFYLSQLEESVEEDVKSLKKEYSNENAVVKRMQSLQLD

Biological target: GST-tagged PIK3Cδ in complex with PIK3R1 (Homo sapiens (Human), UniProt O00329)
Experiment: biochemical
Conditions: not given

SMILES	IC50
COc1ncc(-c2cc(C(F)(F)F)c3c(N)ncnn23)cc1C(=O)NCC[C@H](O)c1ccc(Cl)cc1 [Example 10, 5-[4-amino-5-(trifluoromethyl)pyrrolo[2,1-f][1,2,4]triazin-7-yl]-N-[(3S)-3-(4-chlorophenyl)-3-hydroxypropyl]-2-methoxypyridine-3-carboxamide]	> 1500 nM
COc1ncc(-c2cc(C(F)(F)F)c3c(N)ncnn23)cc1C(=O)N[C@@H]1CN(C(=O)C2CC(F)(F)C2)C[C@@H]1F [Example 31-1, 5-[4-amino-5-(trifluoromethyl)pyrrolo[2,1-f][1,2,4]triazin-7-yl]-N-[1-(3,3-difluorocyclobutanecarbonyl)-(3R,4S)-4-fluoropyrrolidin-3-yl]-2-methoxypyridine-3-carboxamide]	335 nM
COc1ncc(-c2cc(C(F)(F)F)c3c(N)ncnn23)cc1C(=O)N[C@@H]1CN(C(=O)[C@@](C)(O)C(F)(F)F)C[C@@H]1F [Example 311, 5-[4-amino-5-(trifluoromethyl)pyrrolo[2,1-f][1,2,4]triazin-7-yl]-N-[(3R,4S)-4-fluoro-1-[(2R)-3,3,3-trifluoro-2-hydroxy-2-methyl-propanoyl]pyrrolidin-3-yl]-2-methoxypyridine-3-carboxamide]	608 nM
COc1ncc(-c2cc(CN3CCCCN3)c3c(N)ncnn23)cc1C(=O)N[C@@H]1CN(C(=O)C2CC(F)(F)C2)C[C@@H]1F [Example 1716, 5-(4-amino-5-((tetrahydropyridazin-1(2H)-yl)methyl)pyrrolo[2,1-f][1,2,4]triazin-7-yl)-N-((3R,4S)-1-(3,3-difluorocyclobutane-1-carbonyl)-4-fluoropyrrolidin-3-yl)-2-methoxynicotinamide]	12700 nM
COc1ncc(-c2cc(CN3CCOCC3)c3c(N)ncnn23)cc1C(=O)N[C@@H]1CN(C(=O)OCC(F)(F)F)C[C@@H]1F [Example 1717, 2,2,2-trifluoroethyl (3R,4S)-3-(5-(4-amino-5-(morpholinomethyl)pyrrolo[2,1-f][1,2,4]triazin-7-yl)-2-methoxynicotinamido)-4-fluoropyrrolidine-1-carboxylate]	> 15000 nM
COc1ncc(-c2cc(CN3CCOCC3)c3c(N)ncnn23)cc1C(=O)N[C@@H]1CN(S(=O)(=O)CCC(F)(F)F)C[C@@H]1F [Example 1718, 5-(4-amino-5-(morpholinomethyl)pyrrolo[2,1-f][1,2,4]triazin-7-yl)-N-((3R,4S)-4-fluoro-1-((3,3,3-trifluoropropyl)sulfonyl)pyrrolidin-3-yl)-2-methoxynicotinamide]	> 15000 nM
COc1ncc(-c2cc(CN3CCOCC3)c3c(N)ncnn23)cc1C(=O)N[C@@H]1CN(S(=O)(=O)CC(F)(F)F)C[C@@H]1F [Example 1719, 5-(4-amino-5-(morpholinomethyl)pyrrolo[2,1-f][1,2,4]triazin-7-yl)-N-((3R,4S)-4-fluoro-1-((2,2,2-trifluoroethyl)sulfonyl)pyrrolidin-3-yl)-2-methoxynicotinamide]	> 15000 nM
Cc1ncc(-c2cc(C(F)(F)F)c3c(N)ncnn23)cc1C(=O)Nc1ccn(Cc2ccc(F)cc2)n1 [Example 1810, 5-(4-amino-5-(trifluoromethyl)pyrrolo[2,1-f][1,2,4]triazin-7-yl)-N-(1-(4-fluorobenzyl)-1H-pyrazol-3-yl)-2-methylnicotinamide]	53 nM
Cc1ccc(-c2cc(C(F)(F)F)c3c(N)ncnn23)cc1C(=O)Nc1ccn(Cc2ccc(F)cc2)n1 [Example 1811, 5-(4-amino-5-(trifluoromethyl)pyrrolo[2,1-f][1,2,4]triazin-7-yl)-N-(1-(4-fluorobenzyl)-1H-pyrazol-3-yl)-2-methylbenzamide]	148 nM
Cc1ncc(-c2cc(C(F)(F)F)c3c(N)ncnn23)cc1C(=O)Nc1cc(C)n(Cc2ccc(F)cc2)n1 [Example 1812, 5-(4-amino-5-(trifluoromethyl)pyrrolo[2,1-f][1,2,4]triazin-7-yl)-N-(1-(4-fluorobenzyl)-5-methyl-1H-pyrazol-3-yl)-2-methylnicotinamide]	261 nM
Cc1ncc(-c2cc(C(F)(F)F)c3c(N)ncnn23)cc1C(=O)Nc1cn(C(c2ccc(F)cc2)C(F)(F)F)cn1 (stereo not drawn) [Example 1819, 5-(4-amino-5-(trifluoromethyl)pyrrolo[2,1-f][1,2,4]triazin-7-yl)-2-methyl-N-(1-(2,2,2-trifluoro-1-(4-fluorophenyl)ethyl)-1H-imidazol-4-yl)nicotinamide]	1410 nM
[2H]C([2H])([2H])Oc1ncc(-c2ccc3c(N)ncnn23)cc1C(=O)N[C@@H]1CN(C(=O)[C@@](C)(O)C(F)(F)F)C[C@@H]1F [Example 1836, 5-(4-aminopyrrolo[2,1-f][1,2,4]triazin-7-yl)-N-((3R,4S)-4-fluoro-1-((R)-3,3,3-trifluoro-2-hydroxy-2-methylpropanoyl)pyrrolidin-3-yl)-2-(methoxy-d3)nicotinamide]	> 15000 nM

Tested on: Female C57/B16 mice
Experiment: not given
Conditions: mouse, in vivo

SMILES	% protection from body temperature decrease	% reduction in IL6 serum cytokines	% reduction in KC serum cytokines
COc1ncc(-c2cc(C(F)(F)F)c3c(N)ncnn23)cc1C(=O)NCC[C@H](O)c1ccc(Cl)cc1 [Example 10, 5-[4-amino-5-(trifluoromethyl)pyrrolo[2,1-f][1,2,4]triazin-7-yl]-N-[(3S)-3-(4-chlorophenyl)-3-hydroxypropyl]-2-methoxypyridine-3-carboxamide]	70%	78%	88%
COc1ncc(-c2cc(C(F)(F)F)c3c(N)ncnn23)cc1C(=O)N[C@@H]1CN(C(=O)C2CC(F)(F)C2)C[C@@H]1F [Example 31-1, 5-[4-amino-5-(trifluoromethyl)pyrrolo[2,1-f][1,2,4]triazin-7-yl]-N-[1-(3,3-difluorocyclobutanecarbonyl)-(3R,4S)-4-fluoropyrrolidin-3-yl]-2-methoxypyridine-3-carboxamide]	77%	77%	89%
COc1ncc(-c2cc(C(F)(F)F)c3c(N)ncnn23)cc1C(=O)N[C@@H]1CN(C(=O)[C@@](C)(O)C(F)(F)F)C[C@@H]1F [Example 311, 5-[4-amino-5-(trifluoromethyl)pyrrolo[2,1-f][1,2,4]triazin-7-yl]-N-[(3R,4S)-4-fluoro-1-[(2R)-3,3,3-trifluoro-2-hydroxy-2-methyl-propanoyl]pyrrolidin-3-yl]-2-methoxypyridine-3-carboxamide]	81%	88%	79%
COc1ncc(-c2cc(C(F)(F)F)c3c(N)ncnn23)cc1C(=O)N[C@@H]1CN(C(=O)CC(C)(O)C(F)(F)F)C[C@@H]1F (stereo partly drawn) [Example 1224, 5-[4-amino-5-(trifluoromethyl)pyrrolo[2,1-f][1,2,4]triazin-7-yl]-N-[(3R,4S)-4-fluoro-1-(4,4,4-trifluoro-3-hydroxy-3-methylbutanoyl)pyrrolidin-3-yl]-2-methoxypyridine-3-carboxamide]	72%	88%	65%
COc1ncc(-c2cc(F)c3c(N)ncnn23)cc1C(=O)N[C@@H]1CN(C(=O)[C@@](C)(O)C(F)(F)F)C[C@@H]1F [Example 1605, 5-{4-amino-5-fluoropyrrolo[2,1-f][1,2,4]triazin-7-yl}-N-[(3R,4S)-4-fluoro-1-[(2R)-3,3,3-trifluoro-2-hydroxy-2-methylpropanoyl]pyrrolidin-3-yl]-2-methoxypyridine-3-carboxamide]	46%	43%	52%

Biological target: His-GST-TVMV-hRIPK1(1-324) (Homo sapiens (Human), UniProt Q13546)
Experiment: biochemical
Conditions: HTRF Binding Assay (IC50, uM)

SMILES	IC50
COc1ncc(-c2ccc3c(N)ncnn23)cc1C(=O)N[C@@H]1CN(C(=O)C2CC(F)C2)C[C@@H]1F (stereo partly drawn) [Example 157, 5-{4-aminopyrrolo[2,1-f][1,2,4]triazin-7-yl}-N-[(3R,4S)-4-fluoro-1-(3-fluorocyclobutanecarbonyl)pyrrolidin-3-yl]-2-methoxypyridine-3-carboxamide]	0.039 µM
Cc1ncc(-c2cc(C(F)(F)F)c3c(N)ncnn23)cc1C(=O)N1CCC[C@@H](Cc2ccc(F)cc2)C1 [Example 172, 7-{5-[(3S)-3-[(4-fluorophenyl)methyl]piperidine-1-carbonyl]-6-methylpyridin-3-yl}-5-(trifluoromethyl)pyrrolo[2,1-f][1,2,4]triazin-4-amine]	0.021 µM
Cc1ncc(-c2cc(C(F)(F)F)c3c(N)ncnn23)cc1C(=O)N1CCC[C@H](Cc2ccc(F)cc2)C1 [Example 174, 7-{5-[(3R)-3-[(4-fluorophenyl)methyl]piperidine-1-carbonyl]-6-methylpyridin-3-yl}-5-(trifluoromethyl)pyrrolo[2,1-f][1,2,4]triazin-4-amine]	0.018 µM
Cc1ncc(-c2cc(C(F)(F)F)c3c(N)ncnn23)cc1C(=O)N[C@@H]1CN(C(=O)C2CCCC2)C[C@@H]1C [Example 175, 5-[4-amino-5-(trifluoromethyl)pyrrolo[2,1-f][1,2,4]triazin-7-yl]-N-[(3S,4S)-1-cyclopentanecarbonyl-4-methylpyrrolidin-3-yl]-2-methylpyridine-3-carboxamide]	0.095 µM
Nc1ncnn2c(-c3ccc(F)c(C(=O)N4CCOC(Cc5ccccc5)C4)c3)cc(C(F)(F)F)c12 (stereo not drawn) [Example 260, 7-[3-(2-benzylmorpholine-4-carbonyl)-4-fluorophenyl]-5-(trifluoromethyl)pyrrolo[2,1-f][1,2,4]triazin-4-amine]	0.024 µM
COc1ncc(-c2c(-c3nnnn3C)cc3c(N)ncnn23)cc1C(=O)N[C@@H]1CN(C(=O)[C@@](C)(O)C(F)(F)F)C[C@@H]1F [Example 544, 5-(4-amino-6-(1-methyl-1H-tetrazol-5-yl)pyrrolo[2,1-f][1,2,4]triazin-7-yl)-N-((3R,4S)-4-fluoro-1-((R)-3,3,3-trifluoro-2-hydroxy-2-methylpropanoyl)pyrrolidin-3-yl)-2-methoxynicotinamide]	0.124 µM
C[C@@](O)(C(=O)N1C[C@H](F)[C@H](NC(=O)c2cc(-c3cc(C(F)(F)F)c4c(N)ncnn34)ccc2C(F)(F)F)C1)C(F)(F)F [Example 904, 5-[4-amino-5-(trifluoromethyl)pyrrolo[2,1-f][1,2,4]triazin-7-yl]-N-[(3R,4S)-4-fluoro-1-[(28)-3,3,3-trifluoro-2-hydroxy-2-methylpropanoyl]pyrrolidin-3-yl]-2-(trifluoromethyl)benzamide]	0.02 µM
CC(C)(F)C(=O)N1C[C@H](F)[C@H](NC(=O)c2cc(-c3cc(C(F)(F)F)c4c(N)ncnn34)ccc2OCC(F)(F)F)C1 [Example 1063, 5-[4-amino-5-(trifluoromethyl)pyrrolo[2,1-f][1,2,4]triazin-7-yl]-N-[(3R,4S)-4-fluoro-1-(2-fluoro-2-methylpropanoyl)pyrrolidin-3-trifluoroethoxy)benzamide]	0.049 µM
CC(C(=O)N1C[C@H](F)[C@H](NC(=O)c2cc(-c3cc(C(F)(F)F)c4c(N)ncnn34)ccc2OCC(F)(F)F)C1)C(F)(F)F (stereo partly drawn) [Example 1077, 5-[4-amino-5-(trifluoromethyl)pyrrolo[2,1-f][1,2,4]triazin-7-yl]-N-[(3R,4S)-4-fluoro-1-(3,3,3-trifluoro-2-methylpropanoyl)pyrrolidin-3-trifluoroethoxy)benzamide]	0.042 µM
